Reference: ChEMBL document CHEMBL1137289, “Structure-activity relationships of novel antibacterial translation inhibitors: 3,5-diamino-piperidinyl triazines” (Bioorg Med Chem Lett, 2006)

Assays:
Escherichia coli = details: ATCC 25922
Pseudomonas aeruginosa = experiment: Antibacterial activity against Pseudomonas aeruginosa ATCC 27853; format: functional
Staphylococcus aureus = details: ATCC 25923

GENTAMICIN was tested, and the MIC (Escherichia coli) was < 0.5 µg/mL, the MIC (Pseudomonas aeruginosa) was 0.5 µg/mL and the MIC (Staphylococcus aureus) was < 0.5 µg/mL.
